From publication PMC5013675, “Nucleotide binding by the widespread high-affinity cyclic di-GMP receptor MshEN domain” (Nature Communications, 2016)

Protein sequences, listed by entry. Tags and fused reporters are not part of them. Residues count along the entry.
UniProt Q9KUV7, 1-145 limits assumed: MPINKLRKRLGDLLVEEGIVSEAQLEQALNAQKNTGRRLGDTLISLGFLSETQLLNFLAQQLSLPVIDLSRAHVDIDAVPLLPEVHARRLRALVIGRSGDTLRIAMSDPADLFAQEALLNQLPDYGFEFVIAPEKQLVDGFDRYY

Target: VcMshEN1-145 (wild type) (Vibrio cholerae, UniProt Q9KUV7)
Assay: biochemical
Assay type: binding

## Nc1nc2c(ncn2[C@@H]2O[C@@H]3COP(=O)(O)O[C@H]4[C@@H](O)[C@H](n5cnc6c(N)ncnc65)O[C@@H]4COP(=O)(O)O[C@H]3[C@H]2O)c(=O)[nH]1 [cGAMP, (3′–5′)-cyclic AMP-GMP]
  Binding affinity, fold less than that with c-di-GMP: approximately 1000 fold
  Kd: 330 µM
